Test system: NSCLC patients
Assay: Outcome of gefitinib-treated NSCLC patients classified by FISH copy number profile (PIK3CA, PTEN, cen7)
Type: in vivo, human
[1] = 22 patients with high PIK3CA copy number, loss of PTEN and low cen7 copy number, full study group
[2] = 37 patients without EGFR mutation, classifier profile (high PIK3CA, PTEN loss, low cen7)
[3] = 37 patients without EGFR mutation, other profiles
[4] = the other 50 patients, full study group

COc1cc2ncnc(Nc3ccc(F)c(Cl)c3)c2cc1OCCCN1CCOCC1 [gefitinib]
median OS (22 patients (31%) with tumors with high PIK3CA copy number, loss of PTEN and low cen7 copy number, full study group (72 specimens)): 132 days
OR (objective response) [1]: 0%
median PFS [1]: 62 days
median OS [2]: 128 days
median PFS [2]: 62 days
median OS [3]: 380 days
median PFS [3]: 102 days
median OS (the other 50 patients (any other copy number profile), full study group): 373 days
OR (objective response) [4]: 22%
median PFS [4]: 128 days
effectiveness in tumors (conclusion in words) (tumors with relatively high PTEN loss and PIK3CA gain, and low levels of EGFR or cen7, full study group or subgroup without EGFR mutations): relatively ineffective

Source: patent US20160017440A1, “Methods Of Classifying Biological Samples For Predicting Response To Tyrosine Kinase Inhibitor Treatment” (ABBOTT MOLECULAR INC., priority 2009, published 2016)
